Earlier results on one substance are cited in US20040121305A1, “Generation of efficacy, toxicity and disease signatures and methods of use thereof” (priority 2002, published 2004).

For the data set the following is noted: known toxins to be used for toxicity signature generation; organs known to be targeted.

uranyl nitrate: the Target organ/organ system entry is on record as “kidney”.
